Laboratory results reported in PubChem BioAssay (EPA / NIEHS).
The entries are a selection whose mix differs from that of the whole data set. Results filed as inconclusive are left out. Active and inactive are the calls of the source. Rule for the calls, unless noted: active = hit-call score of the fitted dose curve at least 0.9, where 1 is the maximum; inconclusive = response in the unintended direction; inactive = score below 0.9.

By UniProt entry, the sequences of proteins in these tests, tags left out.
UniProt P10275, whole entry: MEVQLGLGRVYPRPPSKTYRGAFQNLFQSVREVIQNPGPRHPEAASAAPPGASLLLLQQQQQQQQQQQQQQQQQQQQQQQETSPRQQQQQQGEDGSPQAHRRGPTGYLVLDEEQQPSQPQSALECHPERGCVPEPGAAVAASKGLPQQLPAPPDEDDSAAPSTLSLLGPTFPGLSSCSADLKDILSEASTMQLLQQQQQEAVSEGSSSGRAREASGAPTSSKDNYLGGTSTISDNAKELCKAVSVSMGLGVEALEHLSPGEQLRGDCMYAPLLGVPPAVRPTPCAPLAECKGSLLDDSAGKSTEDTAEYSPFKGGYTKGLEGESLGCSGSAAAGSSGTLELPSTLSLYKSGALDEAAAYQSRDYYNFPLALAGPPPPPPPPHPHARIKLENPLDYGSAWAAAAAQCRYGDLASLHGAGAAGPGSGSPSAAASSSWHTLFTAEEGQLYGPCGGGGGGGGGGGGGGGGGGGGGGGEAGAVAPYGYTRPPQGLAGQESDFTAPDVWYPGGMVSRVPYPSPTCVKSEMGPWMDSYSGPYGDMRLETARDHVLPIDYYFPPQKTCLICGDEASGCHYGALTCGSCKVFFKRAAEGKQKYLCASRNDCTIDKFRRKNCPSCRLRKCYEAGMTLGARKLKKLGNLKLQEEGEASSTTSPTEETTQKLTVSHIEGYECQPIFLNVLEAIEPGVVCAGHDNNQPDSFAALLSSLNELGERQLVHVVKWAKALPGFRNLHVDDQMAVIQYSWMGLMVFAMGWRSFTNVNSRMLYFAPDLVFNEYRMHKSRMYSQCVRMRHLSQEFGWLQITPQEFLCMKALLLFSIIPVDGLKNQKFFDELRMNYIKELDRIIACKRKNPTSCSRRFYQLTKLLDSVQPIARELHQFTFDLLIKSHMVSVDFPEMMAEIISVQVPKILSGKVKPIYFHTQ

Legend:
[1] = ACEA_AR_agonist_AUC_viability: ACEA Biosciences xCELLigence Real-Time Cell Analysis on Androgen Receptor Agonism for Viability (AID 2283775)
Experimental: ACEA_AR_agonist is a cell-based, single-readout assay that uses 22Rv1, a human prostate cancer cell line, with measurements taken at 80 hours after chemical dosing in a 384-well plate, although TO5 and TO6 (mc0.srcf) used a 96-well plate. Differences in plate size can be ignored given data normalization.ACEA_AR_80hr is one of two assay component(s) measured or calculated from the ACEA_AR assay. It is designed to make measurements of real-time cell-growth kinetics, a form of growth reporter, as detected with electrical impedance signals by Real-Time Cell Electrode Sensor (RT-CES) technology.Data from the assay component ACEA_AR_AUC_viability was analyzed in the positive analysis fitting direction relative to DMSO as the negative control and baseline of activity. Using a type of growth reporter, loss-of-signal activity can be used to understand changes in the viability. Furthermore, this assay endpoint can be referred to as a secondary readout, because this assay has produced multiple assay endpoints where this one serves a viability function. To generalize the intended target to other relatable targets, this assay endpoint is annotated to the cell cycle intended target family, where the subfamily is cytotoxicity.
(§1) The xCELLigence system Multi-E-Plate stations were used to measure the time-dependent response to chemicals. Each compound was tested in an eight-point, 1:4 serial dilution series starting at a maximum final concentration of 100 uM. A maximum starting concentration of 0.5% DMSO was present in the 100 uM chemical samples and was diluted along with the test article dilution series. The screen was performed in biological duplicate using two separate, 96-well, E-Plates 96 for each dilution series (n = 2). Positive controls (MG132 and testosterone) and a negative control (assay media) were tested in quadruplicate on each testing plate. Then, 0.5% and 0.125% DMSO were tested in duplicates in each plate to serve as solvent controls for the 2 highest concentrations of testing compounds: 100 uM and 25 uM. Reference compounds were tested with 8 concentrations with 1:5 serial dilutions. All screening was carried out by ACEA Biosciences, Inc. (San Diego, CA). 22Rv1 cells purchased from ATCC were maintained in media supplemented with 10% fetal bovine serum (FBS). Before screening, 22Rv1 cells were preconditioned in assay medium. Cells were then detached and seeded in E-Plates 96 in assay medium. After overnight monitoring of growth once every hour, compounds were added to […] cells and remained in the medium until the end of the experiment. Cellular responses were then recorded once every 5 min for the first 5 h, and once every hour for an additional 100 h.

[2] = CEETOX_H295R_MTT_cell_viability: Viability Assessment in the CeeTox HT-H295R MTT Assay (AID 2283718; active = hit-call score of the fitted dose curve at least 0.9, where 1 is the maximum; inactive = score below 0.9)
Method in brief: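 H295R cells prestimulated 48 h with 10 uM forskolin, then exposed 48 h to test chemical (0.1% DMSO final). Viability by MTT (0.5 mg/ml, 4 h, 37 C), absorbance 570/650 nm; percent change versus DMSO, bidirectional fit.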

[3] = Tanguay_ZF_120hpf_ActivityScore_legacy: (Legacy) Oregon State University Tanguay Lab 120 Hour Post-fertilization zebrafish Assay Score for Activity (AID 2283742);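 for AC50: dechorionated Tropical 5D wild-type zebrafish embryos held singly per well; static exposure from 6 hpf until 120 hpf at 28 °C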
Method in brief: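 In this whole-embryo screen, dechorionated zebrafish were exposed from 6 hpf until 120 hpf at 28C under a 0.64% DMSO vehicle. Developmental malformations and death were recorded by brightfield microscopy as binary endpoints.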

AR (gene 367) [4] = target: AR (gene 367) (UniProt P10275); test: ACEA_AR_agonist_80hr: ACEA Biosciences xCELLigence Real-Time Cell Analysis on Androgen Receptor Agonism for Proliferation (AID 2283783);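 note: hits increase impedance growth signal above DMSO baseline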
Method in brief: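 Real-time cell-growth kinetics were recorded by electrode impedance in 22Rv1 cells exposed to test chemicals up to 100 uM final; the 80 h timepoint served as the readout, fitted upward relative to DMSO controls, in biological duplicate.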

AR (gene 367) [5] = target: AR (gene 367) (UniProt P10275); test: ACEA_AR_antagonist_80hr: ACEA Biosciences xCELLigence Real-Time Cell Analysis on Androgen Receptor Antagonism for Proliferation (AID 2283787);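 note: hits lower the impedance growth signal relative to DMSO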
Method in brief: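 Using 22Rv1 cells held in assay medium, we dosed compounds (100 uM maximum final, 1:4 serial, eight points, 0.5% DMSO at top) and recorded cell-electrode impedance; the 80 hr timepoint was analyzed against DMSO.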

[6] = ACEA_ER_AUC_viability: ACEA Biosciences xCELLigence Real-Time Cell Analysis on Estrogen Receptor Agonism for Viability (AID 2283782);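 note: continuous compound exposure with impedance area under curve over 80 h; hit means loss of impedance signal meaning reduced cell growth or viability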
Experimental: ACEA_ER is a cell-based, single-readout assay that uses T47D, a human breast cell line, with measurements taken at 80 hours after chemical dosing in a 96-well plate, although TO2 (mc0.srcf) used a 384-well plate. Differences in plate size can be ignored given data normalization.ACEA_ER_AUC_viability is one of two assay component(s) measured or calculated from the ACEA_ER assay. It is designed to make measurements of real-time cell-growth kinetics, a form of growth reporter, as detected with electrical impedance signals by Real-Time Cell Electrode Sensor (RT-CES) technology.Data from the assay component ACEA_ER_AUC_viability was analyzed in the positive analysis fitting direction relative to DMSO as the negative control and baseline of activity. Using a type of growth reporter, loss-of-signal activity can be used to understand changes in the viability. Furthermore, this assay endpoint can be referred to as a secondary readout, because this assay has produced multiple assay endpoints where this one serves a viability function. To generalize the intended target to other relatable targets, this assay endpoint is annotated to the cell cycle intended target family, where the subfamily is cytotoxicity.
as §1, with “(MG132 and E2) and a” for “(MG132 and testosterone) and a”, “Diego, CA). T-47D cells purchased” for “Diego, CA). 22Rv1 cells purchased”, “maintained in RPMI1640 media supplemented” for “maintained in media supplemented”, “with 10% characterized fetal bovine” for “with 10% fetal bovine”, “Before screening, T-47D cells were” for “Before screening, 22Rv1 cells were”, “in assay medium: phenol red-free RPMI1640 supplemented with 10% charcoal-stripped FBS. Cells were” for “in assay medium. Cells were”

[7] = ACEA_AR_antagonist_AUC_viability: ACEA Biosciences xCELLigence Real-Time Cell Analysis on Androgen Receptor Antagonism for Viability (AID 2283776);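 note: area under impedance growth curve at 80 h after dosing as viability; hits lower the growth signal relative to DMSO meaning cytotoxicity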
Method in brief: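 22Rv1 prostate cells, continuous dosing up to 100 uM final (0.5% DMSO max), duplicate plates. Growth measured by impedance; AUC at 80 h, loss of signal vs DMSO.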

[8] = system: Sodium/Iodide Symporter (NIS), SLC5A5 (gene 6528); test: CPHEA_Stoker_NIS_Inhibition_RAIU: CPHEA's Radioactive Iodide Uptake (RAIU) Assay for Sodium/Iodide Symporter (NIS) Inhibition, Stoker and Laws Labs (AID 2283841)
Method in brief: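 Iodide uptake through human NIS is measured in an engineered HEK293T line. Cells take up 125I (329pM final) for 2 hours at room temperature alongside chemicals at 0.001–100uM. Retained radioactivity is counted, and the signal is expressed against DMSO controls.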

[9] = CPHEA_Stoker_NIS_Cytotoxicity: Cytotoxicity Assessment for CPHEA's Radioactive Iodide Uptake (RAIU) Assay for Sodium/Iodide Symporter (NIS) Inhibition, Stoker and Laws Labs (AID 2283897)
Method in brief: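 ATP luminescence (Cell Titer Glo) measured viability, with loss of signal normalized to DMSO controls. Cells: hNIS-HEK293T-EPA, seeded 40 hours prior. Dosing: 0.001–100uM, 2 hours, room temperature, uptake buffer pH 7.4.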

[10] = STM_H9_NormalizedViability: Cytotoxicity Assessment at 120 hours in the Stemina devTOX quickPredict H9 human embryonic stem cell (hESC)-based Assay (AID 2283784)
Experimental: STM_H9_viability utilizes undifferentiated H9 cells to measure cell viability.STM_H9_NormalizedViability is a component calculated in the STM_H9_viability assay. It measures cell viability using background corrected relative fluorescence units (RFU) value from the CellTiterFluor Assay normalized to the value of the 0.1% DMSO neutral control treatment (by 96-well plate)Data from the assay component STM_H9_Viability was analyzed at the assay endpoint STM_H9_Viability_Norm in the positive analysis fitting direction relative to DMSO as the negative control and baseline of activity. Using a type of viability reporter, loss-of-signal activity can be used to understand viability.
H9 hESCs maintained in a pluripotent state were exposed to test compound for 72h with chemical replenishment with media replacement every 24h. Cell-conditioned media from the final 24-h treatment period was collected for analysis of the targeted biomarker, and cell viability of the corresponding cell layer was assessed. […] Each test plate included 1uM Methotrexate (MTX; Selleck Chemicals, Houston, Texas) as a positive reference, 5 nM MTX as a negative reference, 0.1% DMSO as the neutral (vehicle) control, and sample-level media blanks.H9 cell-conditioned media from the final 24-h treatment period was collected for analysis of the targeted biomarker and cell viability was measured from the corresponding cell layer. […]

## O=[N+]([O-])OCC(CO[N+](=O)[O-])(CO[N+](=O)[O-])CO[N+](=O)[O-]
[1]
  outcome: inactive

## Cc1cccc([N+](=O)[O-])c1[N+](=O)[O-]
[2]
  outcome: inactive
[3]
  AC50: active: 21.5 µM
AR (gene 367) [4]
  AC50: active: 26.1 µM
AR (gene 367) [5]
  outcome: inactive

## O=[N+]([O-])c1cccc([N+](=O)[O-])c1
[3]
  outcome: inactive

## Cc1ccc([N+](=O)[O-])c([N+](=O)[O-])c1
[2]
  outcome: inactive
[6]
  AC50: active: 72.6 µM

## COP(C)(=O)OC
[1]
  outcome: inactive
[7]
  outcome: inactive
[6]
  outcome: inactive
[8]
  outcome: inactive
[9]
  outcome: inactive

## N#CBr
[6]
  AC50: active: 22.5 µM

## CC(C)OP(C)(=O)OC(C)C
[3]
  outcome: inactive
[1]
  outcome: inactive
[7]
  outcome: inactive
[6]
  outcome: inactive

## Cc1c([N+](=O)[O-])cccc1[N+](=O)[O-]
[2]
  outcome: inactive
[3]
  outcome: inactive
[1]
  outcome: inactive
[7]
  outcome: inactive

## Cc1ccc([N+](=O)[O-])cc1[N+](=O)[O-]
[3]
  outcome: inactive
[7]
  outcome: inactive
[10]
  outcome: inactive

## CN(C)CCCl
[6]
  AC50: active: 39.8 µM
